System: dogs
Details: dog, in vivo, iv

Q: For “1-methylamino-glucose salts of the Silymarin group material [SMG1]”, which dosage tolerance is on record?
A: The dosage tolerance was 200 mg/kg.
